This is an account of results in PubChem BioAssay AID1020 (Sanford-Burnham Center for Chemical Genomics, 2008).

The entries are a selection whose mix differs from that of the whole data set. The source made the active and inactive calls. Rule as the data show it: active = inhibition above about 50%; inactive = the rest.

In this assay the test system is glucose-6-phosphate dehydrogenase [Leuconostoc mesenteroides]. In words: L. mesenteroides G6PDH inhibitors, counter-screen for G6PDH-coupled screening assays, biochemical, Leuconostoc mesenteroides enzyme (AID 1020). The following applies: Purified L. mesenteroides G6PDH, diaphorase/resazurin coupled fluorescence, 45 min; at 5 µM; stronger effect = higher value. For orientation: Counterscreens check selectivity or assay interference.
As for `CC1CCN(C(=O)Oc2c(Cl)cc(Cl)c3cccnc23)CC1`, the inhibition (in general, how much of the control response was suppressed) was inactive: 10.6%.
